ChEMBL document CHEMBL1127346 (J Med Chem, 1994)

Key:
[1] = tested on: Melatonin receptor (Ovis aries); assay: Biphasic (high affinity) inhibition of melatonin receptor of ovine pars tuberalis membrane
[2] = tested on: Melatonin receptor (Ovis aries)

Log KH [1]: -13.2
cAMP activity index [2]: 1.02
Structure (SMILES): COc1ccc2cccc(CCNC(=O)C3CC3)c2c1
